The target in the assay is T1, mouse GLP-1R S33W (Mus musculus, UniProt O35659, S33W).
T1 sequence (O35659 22-463 S33W): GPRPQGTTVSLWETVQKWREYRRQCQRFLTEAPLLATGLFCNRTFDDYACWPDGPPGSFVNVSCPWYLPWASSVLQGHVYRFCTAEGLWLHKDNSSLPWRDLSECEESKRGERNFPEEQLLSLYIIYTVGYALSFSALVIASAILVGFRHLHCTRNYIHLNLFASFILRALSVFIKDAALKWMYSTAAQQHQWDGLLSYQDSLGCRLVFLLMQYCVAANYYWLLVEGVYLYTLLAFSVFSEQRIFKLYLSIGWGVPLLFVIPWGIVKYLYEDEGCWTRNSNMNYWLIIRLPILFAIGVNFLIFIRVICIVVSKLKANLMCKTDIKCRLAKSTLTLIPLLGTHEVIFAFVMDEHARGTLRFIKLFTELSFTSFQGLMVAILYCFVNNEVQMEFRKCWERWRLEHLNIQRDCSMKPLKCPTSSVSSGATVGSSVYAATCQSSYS
Particulars: mouse and human wild-type and mutant constructs.

Sequences of proteins named here, by UniProt entry; tags and fusion partners are left off. A change or cut given only in a name is not applied to a line headed by its entry.
UniProt O35659: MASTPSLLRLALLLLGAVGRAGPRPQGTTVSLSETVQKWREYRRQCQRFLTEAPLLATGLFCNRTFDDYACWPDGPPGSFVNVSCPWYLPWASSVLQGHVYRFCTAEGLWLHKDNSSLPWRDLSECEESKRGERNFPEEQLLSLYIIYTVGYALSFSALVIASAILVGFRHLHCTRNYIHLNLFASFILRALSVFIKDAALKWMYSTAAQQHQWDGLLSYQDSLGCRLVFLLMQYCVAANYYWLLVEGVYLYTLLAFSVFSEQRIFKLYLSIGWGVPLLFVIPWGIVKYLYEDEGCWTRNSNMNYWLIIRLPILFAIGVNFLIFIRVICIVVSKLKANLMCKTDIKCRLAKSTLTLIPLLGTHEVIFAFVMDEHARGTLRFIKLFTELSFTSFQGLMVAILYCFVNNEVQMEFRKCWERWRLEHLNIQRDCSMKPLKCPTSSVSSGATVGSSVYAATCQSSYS

With GLP-1 [reference compound], the “cAMP signaling, wild-type versus mutant receptors” value was “comparable between wild-type and mutant receptors”.

Source of the values: paper PMC9234956 (Journal of Medicinal Chemistry, 2022).
